Among the data in ChEMBL document CHEMBL6134892, “Discovery and Evaluation of DA-302168S as an Efficacious Oral Small-Molecule Glucagon-Like Peptide-1 Receptor Agonist” (J Med Chem, 2025) are AUC(0-t) and AUC values, retold here.

Structures are written as SMILES.

Data set [1] in a line: AUC last in Cynomolgus monkey at 0.5 mg/kg, iv measured up to 48 hrs by LC-MS/MS analysis. Format: ADME, organism-based, Macaca fascicularis. The note with it: in vivo.
Data set [2] has as its system Cynomolgus monkey. The conditions noted are these: Macaca fascicularis; dose 3.0 mg/kg, route po, time 180.0 min.
Data set [3] has as its system Cynomolgus monkey. The conditions noted are these: Macaca fascicularis; dose 10.0 mg/kg, route po, time 180.0 min.

As a reminder, the AUC(0-t) is the area under the concentration-time curve up to a stated or last time point. `O=C(O)c1ccc2nc(Cc3ccc(-c4ccc(F)c(OCc5ccc(Cl)c6ccoc56)n4)cc3F)n(C[C@@H]3CCO3)c2c1` showed an AUC(0-t) at 48 h in data set [1] of 1770 ng·h/mL. In addition, the figures for the AUC in the data set with Cynomolgus monkey [2] and in the data set on Cynomolgus monkey [3] were 7450 µM·h and 6870 µM·h, respectively.
